This is an account of results in patent US9566336B2, “In situ gelling drug delivery system” (pSivida US, Inc., priority 2003, dated 2017).

The data set in a line: In vitro release study of morphine from morphine-diclofenac co-drug/PLGA formulations, HPLC. Format: physicochemical. As to conditions: 10% plasma in HA phosphate buffer, pH 7.4, 37° C.; co-drug was hydrolyzed in the release medium.

For the substance “diclofenate ester of morphine [morphine-diclofenac co-drug]”, the “co-drug content in the release medium” value was “No morphine-diclofenac co-drug was detected”.
